Source: US20040077832A1

Biological target: Bcl-2, P10415
Test: co-immunoprecipitation (anti-HA) and anti-Bcl-2 western blot, co-transfected 911 cells
Conditions: remark: other sources report otherwise

B1: HA-tagged full length human JFY1 protein, Q9BXH1 1-193 (protein, not shown: small tags and cut ends)
chain: MARARQEGSSPEPVEGLARDGPRPFPLGRLVPSAVSCGLCEPGLAAAPAAPTLLPAAYLCAPTAPPAVTAALGGSRWPGGPRSRPRGPRPDGPQPSLSLAEQHLESPVPSAPGALAGGPTQAAPGVRGEEEQWAREIGAQLRRMADDLNAQYERRRQEEQQRHRPSPWRVLYNLIMGLLPLPRGHRAPEMEPN
With B1 as the binder, how does the fraction of Bcl-2 bound read?
The fraction of Bcl-2 bound was 50%.
